Earlier results as cited in US11633458B2, “Compositions and methods for treating melanoma” (University of Virginia Patent Foundation, priority 2013, dated 2023).

Test system: pancreatic cancer
Details: phase I/II clinical trials, intratumoral; cited from earlier work

## macrophage-activating lipopeptide 2 [MALP-2]
  dose administered intratumorally safely: up to 20 μg
